Data set [1] concerns Carboxypeptidase mix: carboxypeptidase Y and B. Put plainly: Metabolic stability in carboxypeptidase mix (ESMS, selected ion monitoring). To be noted: stability: decrease in SIM signal after 24 h in degradation solution; carboxypeptidase Y and B 0.025 mg/ml, 50 mM ammoniumacetate pH 4.5, 37°C.
Data set [2] has as its system Pancreatic enzyme mix: trypsin, chymotrypsin and elastase. Put plainly: Metabolic stability in pancreatic enzyme mix (ESMS, selected ion monitoring). To be noted: stability: decrease in SIM signal after 24 h in degradation solution, chymotrypsin and elastase 0.025 mg/ml, 100 mM ammoniumbicarbonate pH 8.0, 37°C.

Consider 1 molecule from patent EP1100824B1, “COMPOUNDS WITH GROWTH HORMONE RELEASING PROPERTIES” (NOVO NORDISK A/S, priority 1998, dated 2011).

Each structure is given as a SMILES string.

For the molecule `CSCC[C@H](NC(=O)[C@H](CC(C)C)NC(=O)[C@H](Cc1c[nH]c2ccccc12)NC(=O)[C@H](CCC(N)=O)NC(=O)[C@@H](NC(=O)[C@H](Cc1ccccc1)NC(=O)[C@H](CC(=O)O)NC(=O)[C@H](CCC(N)=O)NC(=O)[C@H](C)NC(=O)[C@H](CCCN=C(N)N)NC(=O)[C@H](CCCN=C(N)N)NC(=O)[C@H](CO)NC(=O)[C@H](CC(=O)O)NC(=O)[C@H](CC(C)C)NC(=O)[C@H](Cc1ccc(O)cc1)NC(=O)[C@H](CCCCN)NC(=O)[C@H](CO)NC(=O)[C@H](Cc1ccc(O)cc1)NC(=O)[C@H](CC(=O)O)NC(=O)[C@H](CO)NC(=O)[C@@H](NC(=O)[C@H](Cc1ccccc1)NC(=O)[C@@H](NC(=O)CNC(=O)[C@H](CCC(N)=O)NC(=O)[C@H](CO)NC(=O)[C@@H](N)Cc1c[nH]cn1)[C@@H](C)O)[C@@H](C)O)C(C)C)C(=O)N[C@@H](CC(N)=O)C(=O)N[C@H](C(=O)O)[C@@H](C)O` [Glucagon], in data set [1], the Carboxy-peptidase mix result was “- (-: Unstable (more than 20% decrease in SIM signal after 24 h in degradation solution))”. Moreover, the Pan. enzyme mix entry in data set [2] is reported as “- (-: Unstable (more than 20% decrease in SIM signal after 24 h in degradation solution))”.
